The numbers were not newly measured in patent US12403100B2, “Natural combination products and methods for regulation of total blood cholesterol” (priority 2018, dated 2025), which cites them from elsewhere.

The conditions of this series: Table 1.

Turning to `CC(C)c1c(C(=O)Nc2ccccc2)c(-c2ccccc2)c(-c2ccc(F)cc2)n1CC[C@@H](O)C[C@@H](O)CC(=O)O` [Atorvastatin], the Lipo/hydrophilicity entry was “Lipophilic”.
